Values quoted from earlier work in patent US20040132819A1, “Appetite control method” (priority 2002, published 2004).

Sequences of proteins named here, by UniProt entry; tags and fusion partners are left off.
UniProt P47746, whole entry: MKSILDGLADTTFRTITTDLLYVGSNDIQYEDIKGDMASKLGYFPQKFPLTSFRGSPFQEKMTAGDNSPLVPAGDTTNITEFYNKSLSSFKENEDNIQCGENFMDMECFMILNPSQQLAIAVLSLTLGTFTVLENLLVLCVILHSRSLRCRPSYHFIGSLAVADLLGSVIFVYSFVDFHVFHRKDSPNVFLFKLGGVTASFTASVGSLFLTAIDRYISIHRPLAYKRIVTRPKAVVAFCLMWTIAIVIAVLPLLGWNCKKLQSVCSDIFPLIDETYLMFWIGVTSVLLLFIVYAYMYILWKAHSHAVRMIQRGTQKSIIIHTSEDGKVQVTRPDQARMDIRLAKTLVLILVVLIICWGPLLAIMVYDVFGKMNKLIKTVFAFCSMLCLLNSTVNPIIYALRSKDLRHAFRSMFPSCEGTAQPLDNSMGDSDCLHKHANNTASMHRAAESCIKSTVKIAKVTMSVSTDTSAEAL

Tests used:
[1] = subcutaneous before 1.0 mg/kg 20:4n-6 NAE; cited from earlier work
CB1 receptor [2] = target: CB1 receptor (Mus musculus, UniProt P47746); settings: intraperitoneal injection after fasting for 18 hours; cited from earlier work
CB1 receptor [3] = settings: intraperitoneal injection after fasting for 18 hours; cited from earlier work

Cc1c(C(=O)NN2CCCCC2)nn(-c2ccc(Cl)cc2Cl)c1-c1ccc(Cl)cc1 [SR141716A, (N-piperidin-1-yl)-5(4-chlorophenyl)-1-(2,4-dichlorophenyl)-4-methyl-1-H-pyrazole-3-carboxamide]
effect of pretreatment on 20:4n-6 NAE induced overeating [1]: blocked | food intake in wild-type controls (CB1 receptor [2]): decreased food intake | food intake in CB1 receptor knockout mice (CB1 receptor [3]): no changes in food intake
